For two substances, koff, kon and Kd results are on record in PMC12613146.

Test [1] concerns the target ectodomain of the epidermal growth factor receptor, EGFR25-645 (human). Put plainly: BLI; biotinylated ligand (50 nM, 5 min) on streptavidin sensors, DDM proteomicelles of the membrane protein in the wells (six two-fold dilutions); 20 mM Tris-HCl, 300 mM KCl, 0.2% (w/v) DDM, 1 mg/ml BSA, pH 7.5; 22 °C; global fits, KD = koff/kon. (In general: Biolayer interferometry detects binding as a change in optical thickness at a sensor tip.)

In test [2] the target is ectodomain of the epidermal growth factor receptor (EGFR) (human) (UniProt P00533). The test can be described thus: BLI; biotinylated protein ligand (50 nM, 5 min) on streptavidin sensors; detergent-solubilised membrane protein (proteomicelles) in the wells, six 2-fold dilutions; 300 mM KCl, 20 mM Tris-HCl, 0.2% (w/v) DDM, 1 mg/mL BSA, pH 7.5; 22 °C; KD = koff/kon.

pKd: −log10 of the molar value. “And” between values parts separate entries of the source, which are not always exact repeats. Identical values can stand only once.

Consider ZEGFR(GGS)2tFhuA (designed binder), for which, in test [1], the off-rate constant (koff) – broadly, the rate constant with which the complex falls apart – is 8.5e-05 s⁻¹ and 9.5e-05 s⁻¹ and 9e-05 s⁻¹; the kon (as a rule, a measure of how fast the partners come together) was 7900 M⁻¹ s⁻¹ and 7700 M⁻¹ s⁻¹ and 7800 M⁻¹ s⁻¹.
For Z_(EGFR)-tFhuA (designed binder), in test [2], the pKd (as a rule, the negative decadic logarithm of the Kd, by convention in mol/L) is 7.80 and the koff worked out at 9e-05 s⁻¹.
